{"sequences": {"note": "The chains behind the UniProt entries cited, without tags or fusion partners. Residues count along the entry.", "UniProt Q9LZD3, 75-638 limits assumed": "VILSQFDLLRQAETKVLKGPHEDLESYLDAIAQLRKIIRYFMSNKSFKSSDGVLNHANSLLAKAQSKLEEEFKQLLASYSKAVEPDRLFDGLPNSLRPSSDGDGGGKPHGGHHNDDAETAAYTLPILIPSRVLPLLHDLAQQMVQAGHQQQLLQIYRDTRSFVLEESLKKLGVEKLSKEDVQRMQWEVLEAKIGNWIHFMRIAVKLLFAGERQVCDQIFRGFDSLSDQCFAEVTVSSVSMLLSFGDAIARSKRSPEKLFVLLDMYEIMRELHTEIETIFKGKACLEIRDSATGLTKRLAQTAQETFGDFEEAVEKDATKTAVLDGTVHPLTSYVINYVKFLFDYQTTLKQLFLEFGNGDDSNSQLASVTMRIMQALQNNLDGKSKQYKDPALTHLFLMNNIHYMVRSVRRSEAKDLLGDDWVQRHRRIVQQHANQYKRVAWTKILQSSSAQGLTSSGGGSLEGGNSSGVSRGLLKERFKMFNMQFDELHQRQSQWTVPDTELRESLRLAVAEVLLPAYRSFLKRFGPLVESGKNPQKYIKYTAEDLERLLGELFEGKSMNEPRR"}, "source": "patent US20180362449A1", "about": "“THE EXOCYST AS A NOVEL DRUG TARGET OF ENDOSIDIN2 AND APPLICATION AS A THERAPEUTIC” (The Regents of the University of California, priority 2015, published 2018)", "target": "EXO70A1 (Arabidopsis thaliana, UniProt Q9LZD3)", "test": "Microscale thermophoresis (MST) with NT-647 labeled EXO70A1", "type": "binding", "conditions": "read-out: Kd (mean ± SE)", "data": [{"smiles": "COc1cc(/C=N/NC(=O)c2cccc(F)c2)cc(I)c1O", "note": "[ES2]", "values": [{"measurement": "Kd", "result": 253, "unit": "µM"}]}]}
